One assay has as its system NCI-H526 cells. Description: In vitro cell inhibition assay - NCI-H526 cell proliferation (CellTiter-Glo). Conditions: read-out: H526 IC50, H526 small cell lung cancer cell proliferation, 5 days, tested form: formate. Background: In ATP-based viability assays light output follows the ATP content of the culture.
For another assay, the system named is NCI-H1417 cells. Nature of the assay: In vitro cell inhibition assay - H1417 cell proliferation (CellTiter-Glo). Conditions: read-out: H1417 IC50, H1417 small cell lung cancer cell proliferation, tested form: formate.
The target in a further assay is pan-HDAC. Nature of the assay: In vitro enzyme inhibition assay - HDAC (HDAC-Glo I/II), pan-HDAC. Format: biochemical. The following applies: read-out: HDAC IC50 (nM) Pan-HDAC; tested form: formate.
The next assay deals with NCI-H69 cells. Description: In vitro cell inhibition assay - NCI-H69 cell proliferation (CellTiter-Glo). Conditions: read-out: H69 IC50, H69 small cell lung cancer cell proliferation, tested form: formate.
For a further assay, the target named is LSD1 (Homo sapiens (Human), UniProt O60341). Nature of the assay: In vitro enzyme inhibition assay - LSD1 (HTRF). In kind it is biochemical. Conditions: read-out: LSD1 IC50; tested form: formate. In general terms: TR-FRET usually uses a lanthanide donor and a delayed reading to cut background.
A further assay concerns the target HDAC1 (Homo sapiens (Human), UniProt Q13547). Description: In vitro enzyme inhibition assay - HDAC (HDAC-Glo I/II), HDAC1. The following applies: read-out: HDAC IC50 (nM) HDAC 1; tested form: formate. Format: biochemical.

Chains of the proteins cited; added tags and fusions are not shown.
UniProt Q13547, whole entry: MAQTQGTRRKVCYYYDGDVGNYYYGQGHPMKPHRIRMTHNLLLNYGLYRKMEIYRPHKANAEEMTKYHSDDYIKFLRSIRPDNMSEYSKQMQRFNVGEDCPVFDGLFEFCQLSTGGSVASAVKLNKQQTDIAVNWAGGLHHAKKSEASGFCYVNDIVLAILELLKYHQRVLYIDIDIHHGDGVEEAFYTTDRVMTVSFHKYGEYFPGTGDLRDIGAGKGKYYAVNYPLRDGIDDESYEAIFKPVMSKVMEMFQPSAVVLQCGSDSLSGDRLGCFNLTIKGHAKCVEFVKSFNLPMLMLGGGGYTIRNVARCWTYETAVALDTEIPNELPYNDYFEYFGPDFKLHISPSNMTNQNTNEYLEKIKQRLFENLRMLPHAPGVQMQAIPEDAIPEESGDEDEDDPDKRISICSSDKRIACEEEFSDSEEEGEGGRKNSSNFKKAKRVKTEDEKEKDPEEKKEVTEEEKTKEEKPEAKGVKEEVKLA

The values that follow come from patent US20250304549A1, “HYDROXYAMIDE DERIVATIVE AND USE THEREOF” (SICHUAN HUIYU PHARMACEUTICAL CO., LTD., priority 2022, published 2025).

Regarding `COc1ccc(-c2cnc(N3CCC(NCc4ccc(/C=C/C(=O)NO)cc4)CC3)c(C#N)c2-c2ccc(C(F)F)nc2)cc1O`, the IC50 in the assay on NCI-H526 cells was determined as 7.18 nM; with NCI-H1417 cells, 7.41 nM; at pan-HDAC, 0.59 nM; with NCI-H69 cells, 3.11 nM; at LSD1, 245 nM.
In the case of `COc1ccc(-c2cnc(N3CCC(NCc4ccc(/C=C/C(=O)NO)cc4)CC3)c(C#N)c2-c2ccc(C(F)(F)F)nc2)cc1O`, the IC50 with NCI-H526 cells was found to be 11.8 nM; in the assay with NCI-H1417 cells, 14.1 nM; at pan-HDAC it was 3.2 nM; on HDAC1, 0.64 nM; in the assay on NCI-H69 cells, 4.16 nM; on LSD1, 24.7 nM.
